Target: T1, GLP-2 receptor (UniProt O95838 1-553, limits assumed)
T1 sequence (looked up): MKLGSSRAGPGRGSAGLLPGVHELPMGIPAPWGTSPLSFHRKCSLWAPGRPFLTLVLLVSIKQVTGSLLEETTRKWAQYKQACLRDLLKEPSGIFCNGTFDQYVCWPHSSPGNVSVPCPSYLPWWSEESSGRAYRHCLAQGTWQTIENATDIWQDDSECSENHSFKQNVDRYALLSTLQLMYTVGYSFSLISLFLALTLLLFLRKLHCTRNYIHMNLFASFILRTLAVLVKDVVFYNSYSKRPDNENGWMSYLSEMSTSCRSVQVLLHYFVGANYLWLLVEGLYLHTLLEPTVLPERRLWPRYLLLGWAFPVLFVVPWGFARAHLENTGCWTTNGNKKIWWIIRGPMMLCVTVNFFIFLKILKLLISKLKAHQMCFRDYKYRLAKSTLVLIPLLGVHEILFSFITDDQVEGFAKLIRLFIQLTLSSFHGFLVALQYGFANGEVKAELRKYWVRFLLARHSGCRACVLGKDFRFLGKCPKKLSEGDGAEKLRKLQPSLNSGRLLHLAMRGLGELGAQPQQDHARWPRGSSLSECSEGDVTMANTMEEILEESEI
Experiment: cell-based or functional assay

HGDGSFSDEMNTILDNLAARDFINWLIQTKITD [GLP2]
EC50, CRE-luciferase reporter in HEK293 cells: 0.046 nM
